Assay results taken from ChEMBL document CHEMBL2440077, “Synthesis and antiprotozoal activity of dicationic 2,6-diphenylpyrazines and aza-analogues” (Bioorg Med Chem, 2013).

Assay: Selectivity ratio of IC50 for Trypanosoma brucei rhodesiense STIB900 to IC50 for Plasmodium falciparum K1
Type: functional

Structure (SMILES): N=C(N)c1ccc(-c2cnc(-c3ccc(C(=N)N)cc3)cn2)cc1
- Ratio IC50: 45
